From US11952431B2, “Neutrophil-binding peptides” (YISSUM RESEARCH DEVELOPMENT COMPANY OF THE HEBREW …, priority 2020, dated 2024)
Where two headings read alike, the source gives them in different places.

How the values were obtained:
4T1 cells = conditions: LQI tetramer 31 nM, 310 nM and 3.1 μM; KFP tetramer 3.9 μM; 18 hours
neutrophils = assay: Effect of KFP-tetramer / 16-KFP on neutrophil viability (microscopy, flow cytometry); format: cell-based, human
[1] = 7.7 μM, mouse serum 37° C.

Row | Substance | effect on cell viability (4T1 cells) | effect on neutrophil viability (neutrophils) | binding of all HDNs after serum incubation ([1]; 20 min) [%] | binding of all HDNs after serum incubation ([1]; 40 min) [%] | binding of all HDNs after serum incubation ([1]; 1 hour) [%]
1 | (KFPDLDSRRLPHMSL (SEQ ID NO: 1) Doa-Doa-C)4-(Mpa)-4-Lys2-Lys-beta-Ala-Lys(Biotin)-beta-Ala-OH [KFP tetramer] | did not affect cell viability | no effect | – | – | –
2 | (LQIQSWSSSP (SEQ ID NO: 9) Doa-Doa-C)4-(Mpa)-4-Lys2-Lys-beta-Ala-Lys(Biotin)-beta-Ala-OH [LQI tetramer] | did not affect cell viability | – | 95 | 95 | 85
